The record followed here is US12312332B2 (Merck Sharp & Dohme LLC., priority 2019, dated 2025).

Protein sequences, listed by entry. Tags and fused reporters are not part of them.
UniProt O43614, whole entry: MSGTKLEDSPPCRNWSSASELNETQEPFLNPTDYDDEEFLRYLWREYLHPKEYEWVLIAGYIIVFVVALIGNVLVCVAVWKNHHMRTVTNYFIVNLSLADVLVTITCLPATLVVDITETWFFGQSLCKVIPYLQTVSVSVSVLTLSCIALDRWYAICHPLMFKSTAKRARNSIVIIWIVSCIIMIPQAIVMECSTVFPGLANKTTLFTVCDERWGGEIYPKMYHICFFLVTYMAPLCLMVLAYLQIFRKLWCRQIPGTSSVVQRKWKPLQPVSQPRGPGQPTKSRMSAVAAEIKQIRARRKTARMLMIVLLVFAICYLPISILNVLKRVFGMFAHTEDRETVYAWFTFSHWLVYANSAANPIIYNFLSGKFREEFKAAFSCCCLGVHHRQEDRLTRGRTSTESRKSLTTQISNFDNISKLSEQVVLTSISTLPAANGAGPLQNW

The target in the assay is human OX2R (Homo sapiens, UniProt O43614). Description: IPOne (IP-One) orexin receptor agonist assay in CHO cells expressing human OX2R.

On to `CS(=O)(=O)N[C@H]1CCN(c2cn[nH]c2)[C@H]1CO[C@H]1CC[C@@H](c2ccccc2)CC1`, for which the “% Inhibition” value (human OX2R, percentage of sample raw value/mean max effect (reference compound at 1 uM with 100% activity)) is reported as 83.5%. The EC50 (read-out: OX2R Potency, EC50, CHO cells expressing human OX2R, IP-One detection, 2 hours incubation, four parameter logistic fit) came out at 3.95 µM.
